# Data reported in PubChem BioAssay AID694 (Emory University Molecular Libraries Screening Center, 2007).
# Chains of the proteins cited; added tags and fusions are not shown.
# UniProt P03372, whole entry, looked up: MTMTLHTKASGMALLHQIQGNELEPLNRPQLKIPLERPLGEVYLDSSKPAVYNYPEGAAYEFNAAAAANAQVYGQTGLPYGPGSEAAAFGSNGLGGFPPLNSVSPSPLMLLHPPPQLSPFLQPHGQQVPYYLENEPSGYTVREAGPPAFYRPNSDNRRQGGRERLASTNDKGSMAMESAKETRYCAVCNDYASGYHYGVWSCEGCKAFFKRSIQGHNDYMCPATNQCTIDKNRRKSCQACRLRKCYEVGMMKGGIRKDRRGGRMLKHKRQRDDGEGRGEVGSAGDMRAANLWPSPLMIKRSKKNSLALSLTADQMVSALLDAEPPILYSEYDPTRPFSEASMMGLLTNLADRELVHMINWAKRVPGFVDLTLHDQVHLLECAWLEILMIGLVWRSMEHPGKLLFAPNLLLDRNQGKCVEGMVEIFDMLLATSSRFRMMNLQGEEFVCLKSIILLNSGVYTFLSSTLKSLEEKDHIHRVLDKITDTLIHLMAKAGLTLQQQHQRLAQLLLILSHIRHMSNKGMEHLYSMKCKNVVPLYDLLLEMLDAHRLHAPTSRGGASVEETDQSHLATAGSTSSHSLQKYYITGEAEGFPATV
# Values joined by “and” are separate entries in the source; they are usually repeats but may differ in a detail not shown here. Equal entries are not always repeated. The entries are a selection whose mix differs from that of the whole data set. Active and inactive are the calls of the source. The rule behind the calls is not given here.
# Molecular target: Estrogen receptor (Homo sapiens) (UniProt P03372)
# Assay: ERα coactivator peptide binding inhibitors, primary screen, biochemical, LOPAC library, TR-FRET (AID 694);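 note: receptor was agonist-bound with estradiol present during the assay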
# Conditions: TR-FRET ERalpha-coactivator peptide binding, at 45 µM, active compounds read high
row,SMILES,inhibition
1,CN(C(=O)Cc1ccc(Cl)c(Cl)c1)[C@H]1CCCC[C@@H]1N1CCCC1,inactive: -0.26% and inactive: 5.53%
2,CN(C(=O)Cc1ccc(Cl)c(Cl)c1)[C@@H]1CCCC[C@@H]1N1CCCC1,inactive: 2.59%
3,CN(C(=O)Cc1ccc(Cl)c(Cl)c1)[C@@H]1CC[C@]2(CCCO2)C[C@H]1N1CCCC1,inactive: -4.69%
4,CN(C(=O)Cc1ccccc1)[C@@H]1CC[C@]2(CCCO2)C[C@H]1N1CCCC1,inactive: -3.64%
5,CN(C(=O)Cc1ccc(Cl)c(Cl)c1)[C@@H]1CCCC[C@H]1N1CCCC1,inactive: 1.3%
6,CN(CCCl)Cc1cc(Cl)c(NC2=NCCN2)c(Cl)c1,inactive: 13.6%
7,CC(Cc1ccc(O)cc1)NCC(O)c1cc(O)cc(O)c1 (configuration not stated),inactive: -4.18%
